Results from patent US20080090254.

Target: T1, GST-poly(Glu, Tyr) substrate
T1 chain: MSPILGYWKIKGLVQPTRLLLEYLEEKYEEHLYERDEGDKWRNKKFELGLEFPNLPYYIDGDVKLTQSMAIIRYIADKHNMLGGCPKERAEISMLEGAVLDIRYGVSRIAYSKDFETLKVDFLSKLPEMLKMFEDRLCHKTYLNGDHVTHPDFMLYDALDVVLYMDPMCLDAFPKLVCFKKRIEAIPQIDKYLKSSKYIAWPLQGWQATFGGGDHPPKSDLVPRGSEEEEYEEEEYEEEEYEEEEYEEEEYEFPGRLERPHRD

B1: EGF Receptor 1 Kinase (protein)
chain: HIVRKRTLRRLLQERELVEPLTPSGEAPNQALLRILKETEFKKIKVLGSGAFGTVYKGLWIPEGEKVKIPVAIKELREATSPKANKEILDEAYVMASVDNPHVCRLLGICLTSTVQLITQLMPFGCLLDYVREHKDNIGSQYLLNWCVQIAKGMNYLEDRRLVHRDLAARNVLVKTPQHVKITDFGLAKLLGAEEKEYHAEGGKVPIKWMALESILHRIYTHQSDVWSYGVTVWELMTFGSKPYDGIPASEISSILEKGERLPQPPICTIDVYMIMVKCWMIDADSRPKFRELIIEFSKMARDPQRYLVIQGDERMHLPSPTDSNFYRALMDEEDMDDVVDADEYLIPQQGFFSSPSTSRTPLLSSLSATSNNSTVACIDRNGLQSCPIKEDSFLQRYSSDPTGALTEDSIDDTFLPVPEYINQSVPKRPAGSVQNPVYHNQPLNPAPSRDPHYQDPHSTAVGNPEYLNTVQPTCVNSTFDSPAHWAQKGSHQISLDNPDYQQDFFPKEAKPNGIFKGSTAENAEYLRVAPQSSEFIGA
phosphorylation of the substrate, Western blotting with anti-phosphotyrosine: At + of all (i to vii) of FIG. 1, a single band was seen at positions where the phosphorylated GST-poly (Glu, Tyr) substrate appears
